Measurements from ChEMBL document CHEMBL3865850, “Discovery of Potent and Selective Leads against Toxoplasma gondii Dihydrofolate Reductase via Structure-Based Design” (ACS Med Chem Lett, 2016).

Assay: Selectivity ratio of IC50 for human DHFR to IC50 for Toxoplasma gondii DHFR

## Nc1ncc(N2CCN(c3cccc(-c4ccccc4)c3)CC2)c(N)n1
  Ratio IC50: 89
